Results published in patent US20070208011A1, “Supersaturated Benzodiazepine Solutions and Their Delivery” (priority 2005, published 2007).

What was measured:
[1] = in vivo; cited from earlier work
[2] = Nasal administration of diazepam and midazolam preparations in two healthy volunteers; details: IN commercial formulations: DZP solvents 40% propylene glycol and 10% ethanol; MDZ pH=3

## CN1C(=O)CN=C(c2ccccc2)c2cc(Cl)ccc21 [DZP, diazepam]
[1]
  First-pass Effect: Low
[2]
  nasal discomfort (in words): significant discomfort
